# Test results from patent US9474754B2, “Pharmaceutical combinations comprising a B-RAF inhibitor, and EGFR inhibitor and optionally a PI3K-α inhibitor” (NOVARTIS AG, priority 2012, dated 2016).
# Tested on: HT-29 human colorectal adenocarcinoma xenograft
# Assay type: in vivo
# Protocol: A fresh suspension was prepared every two weeks and stored at room temperature.
# A fresh suspension was prepared weekly and stored at 4° C.
# Dosing solutions were freshly prepared for one group at a time.
# Each agent was administered at a single dose level, individually and in dual and triple combinations, that were initiated on Day 1 (D1) in female nude mice with established subcutaneous tumors. […] Efficacy was determined from mean tumor volume changes between D1 and D29. Prism summarizes test results as not significant (ns) at P>0.05, significant (symbolized by “*”) at 0.01<P≦0.05, very significant (“**”) at 0.001<P≦0.01, and extremely significant (“***”) at P≦0.001.
# For the purpose of statistical analyses, ΔTV, the difference in tumor volume between D1 (the start of dosing) and the endpoint day, was determined for every animal. […] The […] values are negative represent net tumor reduction for a group. […] Response to Combination Therapies (Groups 5-8)
# [1] = n = 10 per group, doses as in table
substance,measurement,setting,value
cetuximab [reference compound],Mean BW Nadir,"Cpd A 20 mg/kg po bid x 28, Cpd B 25 mg/kg po qd x 28, cetuximab 20 mg/kg ip biwk x 4, paclitaxel 30 mg/kg iv qod x 5",−1.2%
same,"Mean BW Nadir, day of nadir",doses as in table,Day 8
same,Deaths NTR,[1],0
same,Deaths TR,[1],0
